# Antibody variant affinities, Ab-14 heavy chain, assay 1

Target: peptide PDVDLGDISGINAS, taken from heptad repeat 2 (HR2) of SARS-CoV-2 spike.

Parent: Ab-14, a human scFv built as VH, three GGGGS repeats, VL. Only the CDRs of the heavy chain vary.
VH: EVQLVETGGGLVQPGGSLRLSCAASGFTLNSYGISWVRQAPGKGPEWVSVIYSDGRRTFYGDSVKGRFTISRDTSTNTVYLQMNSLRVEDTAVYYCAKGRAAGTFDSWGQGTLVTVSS
VL: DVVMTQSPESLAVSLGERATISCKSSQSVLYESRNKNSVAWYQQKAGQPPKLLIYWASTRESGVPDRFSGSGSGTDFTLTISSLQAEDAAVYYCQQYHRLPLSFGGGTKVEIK

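In library AAYL49, one, two or three CDR residues were substituted; doubles and triples were drawn at random. The scFvs were displayed on barcoded MATa yeast, the peptide on MATalpha yeast. After mating in shaken culture at 30 °C for 16 h, diploids were selected and their barcode pairs sequenced. A regression on co-assayed BCL2-family reference pairs converts the normalised counts of each replicate to an apparent Kd. There are three technical replicates.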

Each variant is given by its three heavy chain CDRs, as the data file delimits them; those of the parent are GFTLNSYGIS, VIYSDGRRTFYGDSVK, GRAAGTFDS.
Values are log10 of the apparent Kd in nM; lower means stronger binding.
The mean shown is taken over the replicates in which the pair was detected.
"ND" means that the variant was in the library but no mating with the target was seen in that replicate; the authors take this as a sign of poor binding, and no number exists.
Empty control strains, which show no peptide, gave a signal in 15% of pairings with library AAYL49; the median was 4.06 and 95% of these signals were weaker than 2.83. No background was subtracted. For each scFv, signals with the empty controls are counted beside the result, with their mean in brackets.

CDR-H1 | CDR-H2 | CDR-H3 | log10 Kd (nM) by replicate | log10 Kd (nM), mean | control signals
GFTLNSYGIS | VIYSDNRRTFYGDSVK | GMAAGTFDS | 5.08 / 5.51 / ND | 5.30 | 5 of 9 (4.32)
GFTLNSYGIS | VIYSDGRITFYGDSVK | LRAAGTVDS | ND / ND / ND | ND | 0 of 9
GFTLNSSGIS | VIYSDGRRTFYGDSVA | GRAAGTFDM | ND / 3.47 / ND | 3.47 | 7 of 9 (4.38)
GFTLNSYGIV | VIYSDGRRTFYGDSVK | GKAGGTFDS | ND / ND / ND | ND | 3 of 9 (3.58)
GFTLNSYGIS | VIYSDGARTFYIDSVK | GRDAGTFDS | 2.43 / 1.59 / ND | 2.01 | 1 of 9 (2.11)
GFTLNSYGIS | VIYSDHRVTSYGDSVK | GRAAGTFDS | 5.46 / ND / ND | 5.46 | 0 of 9
GFTLRSYGIS | VIYSDIRRCFYGDSVK | GRAAGTFDS | ND / ND / ND | ND | 0 of 9
GTTLNSYIIS | VIYSDGRRTFYGDSVN | GRAAGTFDS | ND / ND / 4.63 | 4.63 | 1 of 9 (4.05)
GFTLESYGIS | VIYSDGQRTFYGDSVK | GVAAGTFDS | ND / ND / ND | ND | 0 of 9
GFTLCSYGIS | VIYSDGRRTFYGDSVR | GQAAGTFDS | 1.59 / 1.43 / 1.39 | 1.47 | 0 of 9
GFTESSYGIS | VIYSDGRRTFYGDSVK | GRAANTFDS | 1.66 / 1.49 / 1.45 | 1.54 | 5 of 9 (4.04)
YFTLNSYGES | VIYSDGRRTFYGDSVK | GRAAGTFDS | 4.10 / 3.96 / ND | 4.03 | 6 of 9 (4.05)
GFTLNSYHIS | VIYSKGRRTFYGDSVK | GRQAGTFDS | ND / ND / ND | ND | 0 of 9
GGTLNSYGIS | VIYSILRRTFYGDSVK | GRAAGTFDS | 6.48 / 4.12 / 5.30 | 5.30 | 3 of 9 (4.56)
GFTLNSYGIS | VIYSDGRRNFYIDSVK | GRAAGTFDH | 0.82 / 0.74 / 0.60 | 0.72 | 1 of 9 (3.66)
GFTLNSYGIS | VIYSDGIRTFYGFSVK | GRAAGTFDS | ND / 3.06 / 3.76 | 3.41 | 0 of 9
GFTLNSYGIS | VIYSDGRRTFYGDSVK | MRAAGLFCS | 1.43 / 1.45 / 1.51 | 1.46 | 2 of 9 (3.48)
GFTLNSYGIS | VIYSDGRRVFYGDSVK | GRRAHTFDS | ND / ND / ND | ND | 0 of 9
GFTLNSYAIS | VIYSDGRRTNYGPSVK | GRAAGTFDS | ND / 4.99 / ND | 4.99 | 4 of 9 (3.96)
IFTLNSYGIS | VIYSDGRRTFYGDSVK | GRAAGLVDS | 5.83 / ND / ND | 5.83 | 4 of 9 (3.44)
GFTLNSYGIS | VIMSDGRRTFYGDSVK | WRAAGTFRS | ND / ND / ND | ND | 4 of 9 (4.54)
GFTLMSYGIS | VIYSDGRRTFYGDSVK | VRACGTFDS | 2.64 / 2.71 / 2.88 | 2.75 | 3 of 9 (4.12)
QFTLNSYGIS | VAYSDGNRTFYGDSVK | GRAAGTFDS | ND / ND / ND | ND | 0 of 9
GFTLNSYGIC | VIESDGRRTFYGDSVK | GRAAGTFDS | ND / ND / 5.81 | 5.81 | 1 of 9 (4.49)
GFTLNSYGIW | VIYSDGRRTFYGDMVK | GRFAGTFDS | 3.63 / ND / ND | 3.63 | 2 of 9 (4.11)
GFTLNQYGIS | VIYSDGRRTFYGDSVK | GRAAGTFKS | 3.94 / 5.31 / 5.89 | 5.05 | 4 of 9 (4.44)
GFTLNSYGIS | VIYSDGRRTGYGDSVL | GRAAGTFDS | 1.45 / 1.86 / 2.13 | 1.81 | 1 of 9 (3.60)
GFTLNSYGIS | VIYSDGRRQFYGDSIK | GRAALTFDS | ND / ND / ND | ND | 0 of 9
EFTLNSYGIS | PIYSDGRRTFYGDSVM | GRAAGTFDS | ND / ND / ND | ND | 0 of 9
GFKLNHYGIS | VIYSDGRRTFYGDSVK | GRMAGTFDS | 1.11 / 1.42 / 1.21 | 1.25 | 1 of 9 (4.61)
GFTLNSYGIH | VIYSDGRRTFYQDSVK | GRLAGTFDS | ND / 3.13 / 3.23 | 3.18 | 1 of 9 (4.31)
GFTHNSYGIS | VIYSDGRRHFYGDSNK | GRAAGTFDS | ND / ND / ND | ND | 0 of 9
GFTLNSYGIS | VIYSDGRRTFYHDSVK | GRALGTFDA | 3.51 / 3.91 / 3.42 | 3.61 | 1 of 9 (3.68)
GFTLNSYGIS | VKYSDGRRTFYGDSVK | GRAAGFFDS | ND / 2.91 / ND | 2.91 | 2 of 9 (3.77)
GFTKNSYGTS | VIYSDGRRTFYGDSVH | GRAAGTFDS | ND / ND / ND | ND | 2 of 9 (3.73)
VFTLNSYGIS | VIYSDGRRTFYVDSVK | GRAAGTFDM | 1.56 / 1.72 / 1.80 | 1.69 | 0 of 9
AFTLNSYGMS | VIYSDGRRCFYGDSVK | GRAAGTFDS | ND / ND / ND | ND | 2 of 9 (4.02)
GFTLNSYGIS | VIYSDGRRTFYGKSVK | DRAAGTFAS | ND / ND / ND | ND | 2 of 9 (4.95)
GFTLNSYGIS | VIYSDGRATFYGDSVQ | YRAAGTFDS | ND / ND / ND | ND | 2 of 9 (4.64)
GFTLNSYGIS | VIISDGARTFYGDRVK | GRAAGTFDS | ND / ND / ND | ND | 0 of 9
GFTLNSYGIS | VIYYDGRRYFYGDSHK | GRAAGTFDS | ND / 3.06 / ND | 3.06 | 1 of 9 (4.66)
GFTLNSYGIS | VIYSDGGRTFYGDSVK | GRAAGTSDE | ND / ND / ND | ND | 0 of 9
GFNLNSEGIS | VIYSDGRRTFYGDSVK | GRAAATFDS | 0.89 / 1.05 / 0.79 | 0.91 | 4 of 9 (5.03)
GFTLNSYGIS | VIITDGRRNFYGDSVK | GRAAGTFDS | ND / ND / ND | ND | 1 of 9 (3.17)
GFTLNMYGIS | VIYSDGRRTFYGDSHK | GRAAGTFDS | ND / ND / ND | ND | 0 of 9
GFTLNSEGIV | VIYSDGRRTRYGDSVK | GRAAGTFDS | ND / 3.33 / 5.27 | 4.30 | 6 of 9 (4.56)
GFGLNSYGIS | VIYSDGRRTFYGDGVK | YRAAGTFDS | 4.23 / 5.30 / 4.20 | 4.58 | 4 of 9 (4.73)
GSTLNSYGIS | VIYSDVRRTFYGISVK | GRAAGTFDS | ND / ND / ND | ND | 0 of 9
GFTLNSYGIH | VAYSDGRRTFYGDSVK | RRAAGTFDS | 4.07 / ND / ND | 4.07 | 1 of 9 (3.94)
GFTLNSYGIS | VIYSDGWRTFYGLSVK | GRAAGTFDS | ND / 2.77 / 4.00 | 3.38 | 0 of 9
GFTLNSYGIS | IIYSDGRRTFYGDSVK | GRAAGTFDS | 1.27 / 1.47 / 1.47 | 1.40 | 2 of 9 (3.79)

The 5 strongest on average among those seen in every replicate, once more:

{"CDR-H1": "GFTLNSYGIS", "CDR-H2": "VIYSDGRRNFYIDSVK", "CDR-H3": "GRAAGTFDH", "log10 Kd (nM) by replicate": "0.82 / 0.74 / 0.60", "log10 Kd (nM), mean": "0.72", "control signals": "1 of 9 (3.66)"}
{"CDR-H1": "GFNLNSEGIS", "CDR-H2": "VIYSDGRRTFYGDSVK", "CDR-H3": "GRAAATFDS", "log10 Kd (nM) by replicate": "0.89 / 1.05 / 0.79", "log10 Kd (nM), mean": "0.91", "control signals": "4 of 9 (5.03)"}
{"CDR-H1": "GFKLNHYGIS", "CDR-H2": "VIYSDGRRTFYGDSVK", "CDR-H3": "GRMAGTFDS", "log10 Kd (nM) by replicate": "1.11 / 1.42 / 1.21", "log10 Kd (nM), mean": "1.25", "control signals": "1 of 9 (4.61)"}
{"CDR-H1": "GFTLNSYGIS", "CDR-H2": "IIYSDGRRTFYGDSVK", "CDR-H3": "GRAAGTFDS", "log10 Kd (nM) by replicate": "1.27 / 1.47 / 1.47", "log10 Kd (nM), mean": "1.40", "control signals": "2 of 9 (3.79)"}
{"CDR-H1": "GFTLNSYGIS", "CDR-H2": "VIYSDGRRTFYGDSVK", "CDR-H3": "MRAAGLFCS", "log10 Kd (nM) by replicate": "1.43 / 1.45 / 1.51", "log10 Kd (nM), mean": "1.46", "control signals": "2 of 9 (3.48)"}

Data: MIT Lincoln Laboratory AlphaSeq set, Engelhart et al. 2022, doi:10.1038/s41597-022-01779-4, as distributed in FLAb.